{
  "source": "patent US4762846A",
  "about": "(priority 1986, dated 1988)",
  "key": {"[1]": {"system": "benzodiazepine receptors ([3H]diazepam site)", "assay_type": "binding, rat"}, "[2]": {"system": "amphetamine-induced stereotypy", "settings": "rat, in vivo"}},
  "data": [
    {"molecule": "S=C=Nc1cccc(C2(N3CCCCC3)CCCCC2)c1", "note": "[Metaphit, 1-[1-(3-isothiocyanatophenyl)cyclohexyl]piperidine]", "values": [
      {"measurement": "activity toward the [3H]diazepam site", "setting": "[1]", "value": "inactive in all respects"},
      {"measurement": "antagonism of amphetamine-induced stereotypy", "setting": "[2]", "value": "did not antagonize amphetamine-induced stereotypy"}
    ]}
  ]
}
